{"source": "patent US6353024B1", "about": "“Method for preventing and treating arthritis, osteo-traumatic pain, and neuralgias with trimebutine” (Warner-Lambert Company, priority 2000, dated 2002)", "test_system": "veratridine-induced glutamate release from rat spinal cord slices", "test": "veratridine-induced [3H]-glutamate release from rat spinal cord slices", "data": [{"smiles": "CCC(COC(=O)c1cc(OC)c(OC)c(OC)c1)(c1ccccc1)N(C)C.O=C(O)/C=C\\C(=O)O", "note": "(racemic) [trimebutine, 2-dimethylamino-2-phenylbutyl 3,4,5-trimethoxybenzoate hydrogen maleate]", "values": [{"measurement": "concentrations at which veratridine-induced glutamate release is inhibited dose-dependently", "result": "higher than 60 mM"}]}, {"smiles": "CCC(COC(=O)c1cc(OC)c(OC)c(OC)c1)(NC)c1ccccc1", "note": "(stereo not drawn) [Nor-TMB, N-desmethyl trimebutine]", "values": [{"measurement": "inhibitory effect on glutamate release", "setting": "at 3, 10 and 30 μM, p<0.01", "result": "significant"}]}, {"smiles": "CC[C@@](COC(=O)c1cc(OC)c(OC)c(OC)c1)(c1ccccc1)N(C)C", "note": "[(S)-trimebutine]", "values": [{"measurement": "concentration from which inhibition is significant", "result": "≥ 3", "unit": "µM"}]}]}
